Reference: PubChem BioAssay AID720702 (The Scripps Research Institute Molecular Screening Center, 2013)
Only a part is listed here, and it is no random draw. Calls of active or inactive are those of the source.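 How the source made its calls: active means inhibition above the mean of all tested compounds plus 3 SD, set per campaign (cut at about 25% in these data); inactive means the rest.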

By UniProt entry, the sequences of proteins in these tests, tags left out.
UniProt O95551, whole entry: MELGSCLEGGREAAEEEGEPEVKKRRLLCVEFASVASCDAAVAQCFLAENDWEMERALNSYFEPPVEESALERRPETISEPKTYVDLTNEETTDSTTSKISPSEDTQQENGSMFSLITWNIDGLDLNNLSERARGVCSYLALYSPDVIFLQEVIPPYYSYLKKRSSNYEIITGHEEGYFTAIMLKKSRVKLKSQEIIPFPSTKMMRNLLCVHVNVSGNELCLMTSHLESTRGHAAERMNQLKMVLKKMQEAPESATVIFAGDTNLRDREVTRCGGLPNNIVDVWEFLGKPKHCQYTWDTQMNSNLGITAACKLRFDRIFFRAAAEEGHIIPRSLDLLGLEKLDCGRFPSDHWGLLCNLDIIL

Each compound was assayed against Tyrosyl-DNA phosphodiesterase 2 (Homo sapiens) (UniProt O95551) (assay: human TDP2 enzyme inhibitors, primary screen, biochemical, epi absorbance, recombinant enzyme (AID 720702;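 further: 0% = DMSO with enzyme and 100% = buffer with substrate but no TDP2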)). Conditions: recombinant TDP2, T5PNP hydrolysis, p-nitrophenol absorbance 415 nm; at 12.8 µM; active compounds read high.
Summary of the method: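 System – recombinant human TDP2 · Quantity – TDP2 enzyme at 120 nM final · Doses – single concentration, 12.8 µM nominal, with 1% DMSO · Incubation – 2 h at 37 °C · Measured by – epi absorbance of p-nitrophenol freed from T5PNP by hydrolysis · Read-out – % inhibition relative to enzyme-containing and enzyme-free wells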
In the case of Cc1cc(C)cc(OP(C)(=O)Nc2ccc(SC(F)(F)F)cc2)c1 (configuration not stated), the inhibition is reported as inactive: 2.64%.
CCc1ccc(OP(C)(=O)N2CCN(c3ccc([N+](=O)[O-])cc3)CC2)cc1 (configuration not stated) was tested, and the inhibition was inactive: -3.63%.
For CP(=O)(NC(=O)Nc1ccccc1)Oc1ccccc1 (configuration not stated), the inhibition was inactive: 11.3%.
For CP(=O)(Oc1ccccc1)OC(c1ccccc1)C(F)(F)F (configuration not stated), the inhibition was inactive: 0%.
CP(=O)(Nc1ccc(SC(F)(F)F)cc1)Oc1ccc(Cl)cc1 (configuration not stated) was tested, and the inhibition was inactive: -8.26%.
In the case of Cc1cccc(C)c1OP(C)(=O)Nc1ccc(SC(F)(F)F)cc1 (configuration not stated), the inhibition is reported as inactive: 6.29%.
With CP(=O)(Nc1ccccn1)Oc1ccc(Cl)cc1 (configuration not stated) the inhibition was inactive: 2.75%.
With O=[N+]([O-])c1cc([N+](=O)[O-])c(O)c([N+](=O)[O-])c1.c1ccc(Oc2ccncc2)cc1 the inhibition was inactive: -5.29%.
With CCOC(=O)c1ccc(NP(C)(=O)Oc2ccc(OC)cc2)cc1 (configuration not stated) the inhibition was inactive: 8.63%.
In the case of CCOP(C)(=S)SCC(=O)NC(C)C(=O)O (configuration not stated), the inhibition is reported as inactive: -5.92%.
CP(=O)(Nc1ccccc1Br)Oc1ccccc1 (configuration not stated) was tested, and the inhibition was inactive: -4.1%.
COc1ccccc1OP(C)(=O)Nc1ccccc1 (configuration not stated) was tested, and the inhibition was inactive: 1.91%.
In the case of CP(=S)(Nn1cnnc1)Oc1ccccc1 (configuration not stated), the inhibition is reported as inactive: 8.24%.
O=[N+]([O-])c1ccc2c(c1)C=Nc1ccccc1O2 was tested, and the inhibition was inactive: -2.66%.
For Cc1cccc(C)c1OP(C)(N)=O (configuration not stated), the inhibition was inactive: -1.85%.
In the case of CC(C)(C)c1ccc(OP(C)(=O)Nc2ccc(SC(F)(F)F)cc2)cc1 (configuration not stated), the inhibition is reported as inactive: 1.15%.
In the case of O=[N+]([O-])c1cc([N+](=O)[O-])c(Nc2cccnc2)c([N+](=O)[O-])c1, the inhibition is reported as inactive: 2.93%.
With Cc1cc(C)cc(OP(C)(N)=O)c1 (configuration not stated) the inhibition was inactive: -11%.
With COc1ccc(OP(C)(=O)Nc2cccc(F)c2)cc1 (configuration not stated) the inhibition was inactive: 5.39%.
With COc1ccccc1OP(C)(=O)Nc1cc(Cl)ccc1C (configuration not stated) the inhibition was inactive: -1.58%.
In the case of Cc1ccc(NP(C)(=O)Oc2ccccc2)c(C)c1 (configuration not stated), the inhibition is reported as inactive: 5.69%.
For COc1ccccc1OP(C)(=O)Nc1ccc(C)cc1 (configuration not stated), the inhibition was inactive: -10.2%.
CCOC(=O)c1ccc(NP(C)(=O)Oc2ccccc2)cc1 (configuration not stated) was tested, and the inhibition was inactive: 5.68%.
For CCN(CC)CCCOC(=O)C(O)(c1ccccc1)c1ccccc1, the inhibition was inactive: -9.85%.
For COc1ccccc1-c1ccccn1.O=[N+]([O-])c1cc([N+](=O)[O-])c(O)c([N+](=O)[O-])c1, the inhibition was inactive: 0.17%.
For CCOC(=O)c1ccc(NP(C)(=O)Oc2cc(C)cc(C)c2)cc1 (configuration not stated), the inhibition was inactive: -11.6%.
With Cc1cc(C)cc(OP(C)(=O)Nc2ccc(C)cc2C)c1 (configuration not stated) the inhibition was inactive: -15%.
In the case of COc1ccccc1OP(C)(=O)Nc1cccc(Br)c1 (configuration not stated), the inhibition is reported as inactive: 10.7%.
For Cc1ccc(C)c(NP(C)(=O)Oc2ccccc2)c1 (configuration not stated), the inhibition was inactive: 6.73%.
CP(=O)(Nc1cccc(Br)c1)Oc1ccccc1 (configuration not stated) was tested, and the inhibition was inactive: 1.89%.
With Cc1cc(C)cc(OP(C)(=O)Nc2ccccn2)c1 (configuration not stated) the inhibition was inactive: -5.06%.
With O=C(O)c1cccc(Nc2c([N+](=O)[O-])cc([N+](=O)[O-])cc2[N+](=O)[O-])c1 the inhibition was inactive: -16%.
CC1=NCCc2c1[nH]c1ccccc21.O=[N+]([O-])c1cc([N+](=O)[O-])c(O)c([N+](=O)[O-])c1 was tested, and the inhibition was inactive: 5.51%.
In the case of CCOC(=O)C(CC)C1=NC(C)(C)Cc2ccccc21.O=[N+]([O-])c1cc([N+](=O)[O-])c(O)c([N+](=O)[O-])c1 (configuration not stated), the inhibition is reported as inactive: -8.48%.
In the case of O=[N+]([O-])c1cc([N+](=O)[O-])c(Nc2nnnn2CCO)c([N+](=O)[O-])c1, the inhibition is reported as inactive: -6.61%.
With COc1ccc(-c2ccccn2)cc1.O=[N+]([O-])c1cc([N+](=O)[O-])c(O)c([N+](=O)[O-])c1 the inhibition was inactive: -19%.
In the case of CP(=O)(Nc1ccc(SC(F)(F)F)cc1)Oc1ccccc1 (configuration not stated), the inhibition is reported as inactive: -8.19%.
For CCCOc1ccc(NP(C)(=O)Oc2ccc(Cl)cc2)cc1 (configuration not stated), the inhibition was inactive: -9.99%.
With CN1CCCCC1COC(=O)C1(O)c2ccccc2CCc2ccccc21 (configuration not stated) the inhibition was inactive: -2.3%.
For COc1ccccc1OP(C)(=O)Nc1c(C)cccc1C (configuration not stated), the inhibition was inactive: 3.76%.
With CN(Cc1cccnc1)C(=O)COc1ccc(Cl)c(Cl)c1.O=[N+]([O-])c1cc([N+](=O)[O-])c(O)c([N+](=O)[O-])c1 the inhibition was inactive: -6.9%.
In the case of O=[N+]([O-])c1cc([N+](=O)[O-])c(-n2nnc3ccccc32)c([N+](=O)[O-])c1, the inhibition is reported as inactive: -0.14%.
For Cc1nc2ccc3ccccc3c2s1.O=[N+]([O-])c1cc([N+](=O)[O-])c(O)c([N+](=O)[O-])c1, the inhibition was inactive: -10.2%.
With O=[N+]([O-])c1cc([N+](=O)[O-])c(-c2cnn(-c3ccccc3)c2)c([N+](=O)[O-])c1 the inhibition was inactive: -7.35%.
In the case of CCOP(C)(=S)SCC(=O)NC(C)(CC)C(=O)O (configuration not stated), the inhibition is reported as inactive: 14.9%.
CCOP(=O)(CC)OCC was tested, and the inhibition was inactive: 4.89%.
In the case of CP(=O)(Nc1ccc(SC(F)(F)F)cc1)Oc1ccc(F)cc1 (configuration not stated), the inhibition is reported as inactive: -4.41%.
In the case of Cc1ccccc1NP(C)(=O)Nc1ccccc1C, the inhibition is reported as inactive: -10.4%.
O=[N+]([O-])c1cc([N+](=O)[O-])c(C(F)(F)F)c([N+](=O)[O-])c1O was tested, and the inhibition was inactive: -17.8%.
With CP(=O)(Nc1ccc2c(c1)OCCO2)Oc1ccccc1 (configuration not stated) the inhibition was inactive: 12.9%.
For CN(C)CCOC(=O)C(O)(c1ccccc1)C1CCCCC1 (configuration not stated), the inhibition was inactive: 2.07%.
With COc1ccc(NP(C)(=O)Oc2ccccc2OC)cc1 (configuration not stated) the inhibition was inactive: 10.6%.
In the case of COc1ccc(OP(C)(=O)Nc2cccc(Br)c2)cc1 (configuration not stated), the inhibition is reported as inactive: -16%.
In the case of Cc1c(C(c2ccc3c(c2)OCO3)c2c(C)n(C)n(-c3ccccc3)c2=O)c(=O)n(-c2ccccc2)n1C.O=[N+]([O-])c1cc([N+](=O)[O-])c(O)c([N+](=O)[O-])c1, the inhibition is reported as inactive: 3.19%.
In the case of O=[N+]([O-])c1ccc(OP2(=O)COCCO2)cc1 (configuration not stated), the inhibition is reported as inactive: 10.8%.
With Cc1cc(-c2cccc3ccccc23)c(C)cn1.O=[N+]([O-])c1cc([N+](=O)[O-])c(O)c([N+](=O)[O-])c1 the inhibition was inactive: -6.9%.
In the case of O=[N+]([O-])c1cc([N+](=O)[O-])c(NCC2CCS(=O)(=O)C2)c([N+](=O)[O-])c1 (configuration not stated), the inhibition is reported as inactive: 11.3%.
